# Measurements taken from patent US20260315609A1, “MIXED VASOPRESSIN RECEPTOR AGONIST-ANTAGONIST FOR TREATING END-STAGE LIVER DISEASE AND COMPLICATIONS ASSOCIATED THEREOF” (FERRING B.V., priority 2022, published 2026).
# Tested on: skin blood flow (SBF)
# Test: Skin blood flow (SBF), laser Doppler, anesthetized Wistar rats, IV infusion
# Type: in vivo, rat
# Procedure: This study was performed over multiple experiments using a total of 48 adult male Wistar rats. Compounds were dissolved in 2.5% dextrose and 0.45% sodium chloride on the day of the study, at concentrations allowing administration of the desired dose at an infusion rate of 20 μL/kg/min (0.15-150 pmoL/μL). Compounds were infused via an IV catheter at six sequentially increasing doses. A group of vehicle-administered animals received vehicle throughout the study and data were reported from intervals timed analogously with the dose-response in compound 1-administered animals.
# On the day of experimentation animals were anesthetized and instrumented. […] Ventilation was initiated, and baseline readings for the primary parameter of skin blood flow (SBF) were recorded. Readings for the secondary parameters were also recorded: (1) blood lactate concentration, (2) mean arterial pressure (MAP), and (3) blood pH. Data collection was performed continuously for SBF and MAP using NOTOCORD-hem™ (Instem), and blood samples were taken at each compound dose and immediately analyzed using an i-STAT® meter.
# After the final dose administration, animals were euthanized and a final SBF measurement was recorded to detect any signal from the flow probe after the animal's heart stopped beating to control for a signal not attributed to blood flow. […]
structure (smiles),measurement,value
"NC(=O)CC[C@@H]1NC(=O)[C@H](Cc2ccccc2)NC(=O)[C@H](Cc2ccc(O)cc2)NC(=O)[C@@H](N)CSSC[C@@H](C(=O)N2CCC[C@H]2C(=O)N[C@@H](CCCN=C(N)N)C(=O)NCC(N)=O)NC(=O)[C@H](CC(N)=O)NC1=O [AVP, arginine vasopressin]",SBF Emax,91.8%
